# Binding of CDR-mutated scFvs to a peptide of the spike HR2 region

The measurements come from Engelhart et al. 2022 (doi:10.1038/s41597-022-01779-4) through the FLAb antibody collection.

Binding partner: SARS-CoV-2 spike HR2 peptide, sequence PDVDLGDISGINAS.

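The parent was found by panning a naive human phage display library on the peptide. In library AAYL50, one, two or three CDR residues were substituted; doubles and triples were drawn at random. AlphaSeq pools MATa yeast showing the antibodies with MATalpha yeast showing the peptide. After mating in shaken culture at 30 °C for 16 h, diploids were selected and their barcode pairs sequenced. The ratio of observed to expected reads was calibrated, replicate by replicate, on BCL2-family standards whose Kd was known from biolayer interferometry. There are three technical replicates.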

The variants keep the heavy chain, the linker and the frameworks of Ab-14 (scFv order VH, three GGGGS repeats, VL).
VH: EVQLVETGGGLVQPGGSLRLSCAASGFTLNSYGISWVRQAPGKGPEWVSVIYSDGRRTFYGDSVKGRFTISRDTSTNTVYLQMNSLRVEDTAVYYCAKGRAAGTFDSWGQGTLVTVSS
VL: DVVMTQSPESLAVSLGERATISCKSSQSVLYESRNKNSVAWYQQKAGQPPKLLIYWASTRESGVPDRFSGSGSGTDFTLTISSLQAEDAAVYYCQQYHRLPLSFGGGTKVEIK

Variants are written as CDR1, CDR2 and CDR3 of the light chain (limits as in the source). Parent: KSSQSVLYESRNKNSVA, WASTRES, QQYHRLPLS.
The read-out is the apparent dissociation constant on a log10 scale (nM): the lower, the stronger.
A mean of the replicates is given; it leaves out those without a signal.
An entry "nd" has no value in the source: the pair was not observed among the diploids in that replicate. This suggests poor binding but is not conclusive.
Entries are sorted by rising average, undetected variants last.
For reference, the parent read 0.65 as the reference entry and 1.68 as a member of this library.
Background: pairings of library AAYL50 with three empty control strains gave a value in 18% of cases (median 4.19, 5th percentile 2.99). Values in that range, when seen in few replicates, are hard to tell from nonspecific mating.

| # | CDR-L1 | CDR-L2 | CDR-L3 | replicates, log10 nM | log10 Kd (nM), mean |
|---|---|---|---|---|---|
| 1 | KSSQSVLYEERNKNSVA | FASTRES | QQYSRLPLS | 0.05 / 0.32 / 0.10 | 0.16 |
| 2 | KSSQSVEYESSNKNSVA | WASTRES | QQYHRTPLS | 0.03 / 0.51 / 0.10 | 0.21 |
| 3 | KSSQNVLYESRNKNSVA | NASTREQ | QQYHRLPLS | 0.42 / 0.55 / 0.41 | 0.46 |
| 4 | KSSKSDLLESRNKNSVA | WASTRES | QQYHRLPLS | 0.38 / 0.68 / 0.60 | 0.55 |
| 5 | KSSQSVLYESRNKESVA | DASTRES | QQYHDLPLS | 0.72 / 0.80 / 0.79 | 0.77 |
| 6 | KSSQSVLCESRNKNSVA | AASTRES | QQYHRLPLS | 0.80 / 0.84 / 0.77 | 0.80 |
| 7 | KSSQSILYESLRKNSVA | WASTRES | QQYHRLPLS | 1.21 / 1.31 / 1.44 | 1.32 |
| 8 | KSSQICLYESRNKNSVA | WASTRES | QQYHYLPLS | 1.00 / 1.53 / 1.48 | 1.34 |
| 9 | KSSQSVLYESANKNSVA | WVSTRES | QQYHGLPLS | 1.37 / 1.45 / 1.55 | 1.46 |
| 10 | KSSQSVLHECRNKNSVA | WASTRAS | QQYHRLPLS | 1.59 / 1.69 / 1.73 | 1.67 |
| 11 | KSSQSVPYRSRNKNSVA | WAETRES | QQYHRLPLS | 1.85 / 1.81 / 1.91 | 1.85 |
| 12 | KSSQSVLYESRLKNSVA | WASTRSS | QQFHRLPLS | nd / 2.41 / 1.78 | 2.10 |
| 13 | KSSIEVLYESRNKLSVA | WASTRES | QQYHRLPLS | 2.11 / 1.99 / 2.57 | 2.22 |
| 14 | KSSQLVLYESRNKNSVA | WASTRES | QQYHELPLS | 2.54 / 2.15 / 2.54 | 2.41 |
| 15 | KSSQSVLYRSRNKNSVA | FASTRES | QQYHRLPLS | 2.72 / 2.26 / 2.25 | 2.41 |
| 16 | KSSYSVLYESRNKNSVA | APSTRES | QQYHRLPLS | 2.59 / 2.86 / 2.11 | 2.52 |
| 17 | KSSQSGLPESRNKNSFA | WASTRES | QQYHRLPLS | 2.78 / 2.60 / 2.26 | 2.55 |
| 18 | KSSQSVLYESRNKNSVA | QASTRES | QQHHRLPLY | 2.82 / 2.21 / 2.94 | 2.66 |
| 19 | WSSQSILYEYRNKNSVA | WASTRES | QQYHRLPLS | 2.81 / 2.43 / 2.85 | 2.70 |
| 20 | KSSQSVLYESRNKMSVA | WASTRES | QQYHRLWVS | nd / 2.85 / nd | 2.85 |
| 21 | KSSQSVISESRNKTSVA | WASTRES | QQYHRLPLS | 2.89 / 2.93 / 2.80 | 2.87 |
| 22 | KSSQSRLYESRNKNSVA | WAHTRNS | QQYHRLPLS | nd / 2.76 / 3.93 | 3.35 |
| 23 | KSSQWVLYMSRNKNSVA | WASTRES | QQYHRLPFS | nd / nd / 3.35 | 3.35 |
| 24 | KSSQSVLYEWRNKNSVA | WASARWS | QQYHRLPLS | nd / 3.48 / nd | 3.48 |
| 25 | KSSQSVLYESRNKNSCA | WASTRES | QQYHRLNLS | nd / nd / 3.77 | 3.77 |
| 26 | KSSQSVLYESRNKNEVA | WASTRES | QQYHRKPNS | 4.09 / 3.58 / 3.79 | 3.82 |
| 27 | KSSQSVLYESRNNNSVA | WASTRES | AQYHRLPLA | 4.10 / 3.40 / 4.07 | 3.86 |
| 28 | KSAQSVLYESRNKNSVA | WASTMES | QQYHRLPLS | nd / 4.06 / nd | 4.06 |
| 29 | KSSQSVLMESRNKNSVA | WASVNES | QQYHRLPLS | 4.84 / 3.42 / nd | 4.13 |
| 30 | KSSQSVLYESRNKNSVA | WASTRES | QCVHRLPLS | nd / nd / 4.33 | 4.33 |
| 31 | KSSQSVLYESRTKNSCA | WASTRES | QQYHRLPLS | nd / nd / 4.34 | 4.34 |
| 32 | KQSQSVLYESRNKFSVY | WASTRES | QQYHRLPLS | nd / 4.53 / nd | 4.53 |
| 33 | KSSQSVLYESRNKNVNA | WASTRES | QQYHRAPLS | nd / nd / nd | nd |
| 34 | KSSQSVEYESRNKNSVA | WFSTRES | QQYRRLPLS | nd / nd / nd | nd |
| 35 | KSSQSVLYEHRNKNSVA | WASTRES | QQYHRQPLS | nd / nd / nd | nd |
| 36 | KSSQSVLYESRNKNSVA | WASTPES | SQYHRLPLF | nd / nd / nd | nd |
| 37 | DSSQSPLYESLNKNSVA | WASTRES | QQYHRLPLS | nd / nd / nd | nd |
| 38 | KSSQSVLYWSRNKNSVA | WASTRES | QWYHELPLS | nd / nd / nd | nd |
| 39 | KSSQSVLYQSRNKNSVR | WASTRES | QQYHNLPLS | nd / nd / nd | nd |
| 40 | KSSQSVLYESRNKRSAA | WASTREK | QQYHRLPLS | nd / nd / nd | nd |
| 41 | KGSQSVLYESRNKNYVA | WLSTRES | QQYHRLPLS | nd / nd / nd | nd |

The first 5 entries again:

| CDR-L1 | CDR-L2 | CDR-L3 | replicates, log10 nM | log10 Kd (nM), mean |
|---|---|---|---|---|
| KSSQSVLYEERNKNSVA | FASTRES | QQYSRLPLS | 0.05 / 0.32 / 0.10 | 0.16 |
| KSSQSVEYESSNKNSVA | WASTRES | QQYHRTPLS | 0.03 / 0.51 / 0.10 | 0.21 |
| KSSQNVLYESRNKNSVA | NASTREQ | QQYHRLPLS | 0.42 / 0.55 / 0.41 | 0.46 |
| KSSKSDLLESRNKNSVA | WASTRES | QQYHRLPLS | 0.38 / 0.68 / 0.60 | 0.55 |
| KSSQSVLYESRNKESVA | DASTRES | QQYHDLPLS | 0.72 / 0.80 / 0.79 | 0.77 |